From patent publication US20040019027A1, “Method of treating cerebrotendinous xanthomatosis” (priority 2002, published 2004)

Target: T1, human PXR ligand binding domain (Homo sapiens, UniProt O75469)
T1 sequence (O75469 107-434): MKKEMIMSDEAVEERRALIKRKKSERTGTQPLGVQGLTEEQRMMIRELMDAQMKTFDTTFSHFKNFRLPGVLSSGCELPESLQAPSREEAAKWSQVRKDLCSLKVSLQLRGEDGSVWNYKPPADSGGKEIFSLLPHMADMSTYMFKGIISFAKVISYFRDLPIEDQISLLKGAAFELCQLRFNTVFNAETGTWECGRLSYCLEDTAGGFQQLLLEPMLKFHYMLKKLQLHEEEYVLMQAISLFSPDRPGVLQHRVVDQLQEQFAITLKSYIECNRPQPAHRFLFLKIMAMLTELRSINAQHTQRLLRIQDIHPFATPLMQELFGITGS
Assay: In vitro ligand displacement assay with [3H]SR12813
Details: 37.5 nM [3H]SR12813; 5 μM hyperforin, 30 μM Triol, 30 μM Tetrol; FIG. 4
Description: The amount of [^3H]SR12813 associated with human PXR is expressed in cpm.
To determine whether a molecule or compound interacts directly with a PXR or is a PXR ligand, an in vitro ligand displacement assay is commonly used. […] In the ligand displacement assay, the ligand binding domain of a PXR is synthesized or expressed and purified. A known PXR ligand is radio-labeled and incubated with the purified ligand binding domain of the PXR. A molecule or compound suspected to be a PXR ligand is then added into the incubated mixture. Radioactivity reading is taken using a scintillation counter. If the molecule or compound competes with the known PXR ligand for the ligand binding domain of the PXR, the molecule or compound is expected to displace some of the radio-labeled known PXR agonist and reduce the radioactivity reading. Accordingly, the reduction of radioactivity reading indicates whether the molecule or compound is a PXR ligand and the extent to which the molecule or compound competes with the known PXR ligand.
An in vitro ligand displacement assay was used to determine whether 5β-cholestane-3α, 7α, 12α-triol interacts directly with the ligand binding domain of PXR. Because radiolabeled [^3H]SR12813 are available for human PXR but not mouse PXR, human PXR was used to examine whether 5β-cholestane-3α, 7α, 12α-triol could compete for binding of human PXR to a tritiated SR12813. […]

## hyperforin
  displacement of [3H]SR12813 from human PXR (in words): effectively displaced
